Data taken from PubChem BioAssay (NCI).
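All cell lines were grown in 96-well plates and treated with compound for 48 hours. TGI denotes the concentration required for complete inhibition of growth.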

Experiments:
Assay in all cases: NCI anticancer screen, dose series, 48 h
NCI-H460 lung = test system: NCI-H460 lung
MCF7 breast = test system: MCF7 breast
A498 renal = test system: A498 renal
SF-539 CNS = test system: SF-539 CNS
HT29 colon = test system: HT29 colon
SF-268 CNS = test system: SF-268 CNS
SNB-75 CNS = test system: SNB-75 CNS
SN12C renal = test system: SN12C renal
NCI-H322M lung = test system: NCI-H322M lung
SK-MEL-2 melanoma = test system: SK-MEL-2 melanoma
UACC-257 melanoma = test system: UACC-257 melanoma
UO-31 renal = test system: UO-31 renal
MALME-3M melanoma = test system: MALME-3M melanoma
HOP-92 NSCLC = test system: HOP-92 NSCLC
SR leukemia = test system: SR leukemia
NCI-H522 lung = test system: NCI-H522 lung
NCI-H23 lung = test system: NCI-H23 lung
M14 melanoma = test system: M14 melanoma
786-0 renal = test system: 786-0 renal
OVCAR-4 ovarian = test system: OVCAR-4 ovarian
MOLT-4 leukemia = test system: MOLT-4 leukemia
RPMI-8226 leukemia = test system: RPMI-8226 leukemia
PC-3 prostate = test system: PC-3 prostate
MDA-MB-435 = test system: MDA-MB-435
SW-620 colon = test system: SW-620 colon
OVCAR-3 ovarian = test system: OVCAR-3 ovarian
A549 NSCLC = test system: A549 NSCLC
OVCAR-5 ovarian = test system: OVCAR-5 ovarian
CAKI-1 renal = test system: CAKI-1 renal
SNB-19 CNS = test system: SNB-19 CNS
TK-10 renal = test system: TK-10 renal
K-562 leukemia = test system: K-562 leukemia
HCT-15 colon = test system: HCT-15 colon
HL-60(TB) leukemia = test system: HL-60(TB) leukemia
DU-145 prostate = test system: DU-145 prostate
CCRF-CEM leukemia = test system: CCRF-CEM leukemia
MDA-MB-231 breast = test system: MDA-MB-231 breast
SF-295 CNS = test system: SF-295 CNS
KM12 colon = test system: KM12 colon
T-47D breast = test system: T-47D breast
U251 CNS = test system: U251 CNS
HS 578T breast = test system: HS 578T breast
HOP-62 NSCLC = test system: HOP-62 NSCLC
UACC-62 melanoma = test system: UACC-62 melanoma
OVCAR-8 ovarian = test system: OVCAR-8 ovarian
EKVX NSCLC = test system: EKVX NSCLC
HCT-116 colon = test system: HCT-116 colon
SK-OV-3 ovarian = test system: SK-OV-3 ovarian
BT-549 breast = test system: BT-549 breast
ACHN renal = test system: ACHN renal
LOX IMVI melanoma = test system: LOX IMVI melanoma
COLO 205 colon = test system: COLO 205 colon
NCI/ADR-RES ovarian = test system: NCI/ADR-RES ovarian
RXF 393 renal = test system: RXF 393 renal
IGROV1 ovarian = test system: IGROV1 ovarian
NCI-H226 lung = test system: NCI-H226 lung
SK-MEL-28 melanoma = test system: SK-MEL-28 melanoma

Compound: N#C/C(=C\c1ccc(N(CCBr)CCBr)cc1)C(N)=O
- TGI (NCI-H460 lung): 24.1 µM
- TGI (MCF7 breast): 13.4 µM
- TGI (A498 renal): 4.78 µM
- TGI (SF-539 CNS): 15.6 µM
- TGI (HT29 colon): > 100 µM
- TGI (SF-268 CNS): 16.9 µM
- TGI (SNB-75 CNS): 28.9 µM
- TGI (SN12C renal): 7.03 µM
- TGI (NCI-H322M lung): 13.5 µM
- TGI (SK-MEL-2 melanoma): 70.5 µM
- TGI (UACC-257 melanoma): 6.19 µM
- TGI (UO-31 renal): 32.5 µM
- TGI (MALME-3M melanoma): 1850 nM
- TGI (HOP-92 NSCLC): > 100 µM
- TGI (SR leukemia): > 100 µM
- TGI (NCI-H522 lung): 22.7 µM
- TGI (NCI-H23 lung): 3.2 µM
- TGI (M14 melanoma): 3.42 µM
- TGI (786-0 renal): 11.9 µM
- TGI (OVCAR-4 ovarian): > 100 µM
- TGI (MOLT-4 leukemia): 2290 nM
- TGI (RPMI-8226 leukemia): 26.2 µM
- TGI (PC-3 prostate): 45.7 µM
- TGI (MDA-MB-435): 3.13 µM
- TGI (SW-620 colon): > 100 µM
- TGI (OVCAR-3 ovarian): 7.12 µM
- TGI (A549 NSCLC): 4.58 µM
- TGI (OVCAR-5 ovarian): 22.6 µM
- TGI (CAKI-1 renal): 3.18 µM
- TGI (SNB-19 CNS): > 100 µM
- TGI (TK-10 renal): 4.08 µM
- TGI (K-562 leukemia): 52.8 µM
- TGI (HCT-15 colon): 7.28 µM
- TGI (HL-60(TB) leukemia): 5.52 µM
- TGI (DU-145 prostate): 49.4 µM
- TGI (CCRF-CEM leukemia): 54.1 µM
- TGI (MDA-MB-231 breast): 25 µM
- TGI (SF-295 CNS): 6.27 µM
- TGI (KM12 colon): 7.12 µM
- TGI (T-47D breast): 27.8 µM
- TGI (U251 CNS): 20 µM
- TGI (HS 578T breast): 74.7 µM
- TGI (HOP-62 NSCLC): 10.5 µM
- TGI (UACC-62 melanoma): 256 nM
- TGI (OVCAR-8 ovarian): 7.35 µM
- TGI (EKVX NSCLC): 16.2 µM
- TGI (HCT-116 colon): 7.93 µM
- TGI (SK-OV-3 ovarian): 60.8 µM
- TGI (BT-549 breast): 26.6 µM
- TGI (ACHN renal): 2590 nM
- TGI (LOX IMVI melanoma): 4.06 µM
- TGI (COLO 205 colon): 5.23 µM
- TGI (NCI/ADR-RES ovarian): 3.16 µM
- TGI (RXF 393 renal): 23.1 µM
- TGI (IGROV1 ovarian): 42 µM
- TGI (NCI-H226 lung): 3.19 µM
- TGI (SK-MEL-28 melanoma): 17.3 µM
